The test has as its target T1, DPP1 (Homo sapiens, UniProt P53634).
T1 sequence (P53634 with tags, fused parts or gaps): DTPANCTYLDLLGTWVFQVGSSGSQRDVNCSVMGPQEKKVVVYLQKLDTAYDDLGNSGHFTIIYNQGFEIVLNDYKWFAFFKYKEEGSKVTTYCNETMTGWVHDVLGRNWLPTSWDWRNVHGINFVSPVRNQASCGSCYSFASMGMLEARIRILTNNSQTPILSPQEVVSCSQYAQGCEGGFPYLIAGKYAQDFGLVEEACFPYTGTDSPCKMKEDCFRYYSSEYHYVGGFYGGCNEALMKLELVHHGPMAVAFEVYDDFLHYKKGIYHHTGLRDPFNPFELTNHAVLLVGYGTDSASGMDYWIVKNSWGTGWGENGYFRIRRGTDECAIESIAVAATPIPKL
Kind of test: DPP1 activity cell assay. In kind it is cell-based. The conditions noted are these: read-out: DPP1 IC50, corrected for PPB.

This is an account of results in article PMC4945769 (British Journal of Pharmacology, 2016).

Molecules are shown by their SMILES. pIC50: −log10 of the molar value. Like-named read-outs stand apart in the source and are kept apart here.

`N#Cc1ccc(-c2ccc(C[C@@H](C#N)NC(=O)C3(N)CCOCC3)cc2)cc1` [AZ2, (S)‐4‐amino‐N‐(1‐cyano‐2‐(4′‐cyanobiphenyl‐4‐yl)ethyl)tetrahydro‐2H‐pyran‐4‐carboxamide]: the pIC50 by setting is: (in vitro potency corrected for human PPB) 7.36; (in vitro potency corrected for rat PPB) 7.17.

One may read the pIC50 as −log10 of the IC50, conventionally taken in molar units.
